Target: T1, MIF (Homo sapiens, UniProt P14174)
T1 sequence (P14174 2-115 limits assumed): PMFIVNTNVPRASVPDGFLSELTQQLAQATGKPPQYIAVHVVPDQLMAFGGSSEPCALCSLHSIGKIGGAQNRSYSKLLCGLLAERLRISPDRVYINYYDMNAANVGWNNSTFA
Test: MIF tautomerase activity assay with 4-HPP as substrate

4-(4-(isoquinolin-3-yl)-1H-1,2,3-triazol-1-yl)phenol [Compound 10]
LE (ligand efficiency) (LE = 1.4(−log IC50)/N): 0.39 | LLE (lipophilic ligand efficiency) (LLE = pIC50 – C log P): 2.55
